## Yeast mating assay 1: variants of the scFv Ab-14

Values reported by Engelhart et al. 2022, doi:10.1038/s41597-022-01779-4 (FLAb copy).

All variants were tested on one target, the spike HR2 peptide PDVDLGDISGINAS (SARS-CoV-2).

Parent: Ab-14, a human scFv built as VH, three GGGGS repeats, VL. Only the CDRs of the heavy chain vary.
VH: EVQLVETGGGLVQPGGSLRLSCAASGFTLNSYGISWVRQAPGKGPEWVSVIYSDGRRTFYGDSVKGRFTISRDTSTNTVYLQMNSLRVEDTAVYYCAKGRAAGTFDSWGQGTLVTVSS
VL: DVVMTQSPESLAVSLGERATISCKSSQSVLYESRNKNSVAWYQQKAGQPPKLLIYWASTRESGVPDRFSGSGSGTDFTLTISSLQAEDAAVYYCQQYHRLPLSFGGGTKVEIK

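Phage display of a naive human antibody library on the peptide gave the parent. AAYL49 was designed without a model: most single CDR substitutions and a random sample of double and triple ones. The scFvs were displayed on barcoded MATa yeast, the peptide on MATalpha yeast. The frequency of each diploid, read from paired DNA barcodes, reflects how well the two displayed proteins bind. Read counts were normalised to the haploid input and turned into Kd by a linear fit to BCL2-family pairs of known affinity, for each replicate. The assay was run in three technical replicates.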

Variants are written as CDR1, CDR2 and CDR3 of the heavy chain (limits as in the source). Parent: GFTLNSYGIS, VIYSDGRRTFYGDSVK, GRAAGTFDS. Values are log10 of the apparent Kd in nM; lower means stronger binding. Replicates are averaged; those with no signal do not enter the mean. "nd" marks a missing value. The strain was present, yet no cells mated with the target were sequenced in that replicate, which points to weak or no binding. Empty control strains, which show no peptide, gave a signal in 15% of pairings with library AAYL49; the median was 4.06 and 95% of these signals were weaker than 2.83. No background was subtracted.

CDR-H1,CDR-H2,CDR-H3,log10 Kd (nM) by replicate,mean log10 Kd (nM)
GFTWNSYGNS,VIYSDGRRTFYYDSVK,GRAAGTFDS,nd nd nd,nd
GFTLNSYNIP,VIYSDGRRTFYGDSVK,GSAAGTFDS,6.14 nd nd,6.14
GFTLNSYGIS,YIFSDGRRTLYGDSVK,GRAAGTFDS,nd nd nd,nd
GFPLNSYGIS,VRYSDGRRTCYGDSVK,GRAAGTFDS,nd nd nd,nd
GFTLNSYGIS,VISSDGKRTFYGDSVK,GRAADTFDS,4.74 3.23 3.22,3.73
GFTLNSYGIS,VIYSDGRRTHYGDSVK,GRARGQFDS,nd nd nd,nd
GFTLNSYGIS,VIYSIGRWTFYGDSVK,GRIAGTFDS,4.35 nd nd,4.35
GFTLNSYGAS,VIYSDGRRTFYGDSVK,GRAAGHFVS,2.52 3.31 2.01,2.61
GFTLNSYGIS,VIYSDGRRTLYGDSVK,GRACGTVDS,nd nd nd,nd
GFTLNSYGIS,VIYKDGRRTFYGDSHA,GRAAGTFDS,5.66 nd nd,5.66
GFTLNSYGIS,PIYSDGRRTFYGDVVK,GRAAGLFDS,nd nd nd,nd
GFTLNSSGIS,VIYSDCRRTFYGDSVK,GRAAGTNDS,nd 3.69 nd,3.69
NFTLNSYGIS,VIYSDGRRTFYGDSVK,GRCAGTFTS,nd nd nd,nd
GDTLNSMGIS,VIYSDGRRTFYVDSVK,GRAAGTFDS,1.83 1.83 1.88,1.85
GFTLNSYKIS,KIYSDGRRTFYGDSVK,MRAAGTFDS,6.08 5.27 5.97,5.78
GFTANSYGIA,VLYSDGRRTFYGDSVK,GRAAGTFDS,nd nd nd,nd
GFTLNSTGIS,VIYSDGRRTFYGDSVK,GRWALTFDS,4.41 3.39 nd,3.90
GFTLNSYGIS,VIYSDGQRTFYGTSVK,ERAAGTFDS,3.73 3.18 4.53,3.81
GFNLNSYGIS,VIDSDGRRTFYGDSVK,GRAAGTFDV,nd nd nd,nd
GFTLNSYGIS,LISSDGRRTFYGDSVK,GRAAGTFDS,nd nd nd,nd
AFTLNSYGIS,VGYSDGRRTFYGDSVK,GRAAGTFPS,4.56 3.39 nd,3.97
GQTVNSYGIS,VIYSDGRRTFYGDSVI,GRAAGTFDS,nd 3.72 3.75,3.74
GITLNSYMIS,VIYSDLRRTFYGDSVK,GRAAGTFDS,nd nd nd,nd
GTTLNSYGII,VIYSDGRRTFYGDSVL,GRAAGTFDS,nd nd nd,nd
GFTLNSYGSS,VIYSDGRRTFKGDSVK,GRAALTFDS,nd nd nd,nd
GFTLNSYGIS,VIYSFIRRTFYGDSVK,GRHAGTFDS,nd nd nd,nd
GFTLNSYGIS,VIYSDGRRTFYGNSHK,GRAEGTFDS,nd nd nd,nd
GFQLNSYGIS,VIYSDGRRTFYGDSNK,ARAAGTFDS,nd nd nd,nd
GGTLNSYGIS,VIYSDGRRTFYGDSVK,GRAAGTFVL,nd nd nd,nd
GFTLNVAGIS,VIYSDGRRTFYGDSVK,GREAGTFDS,nd nd nd,nd
GFCLNSYGIS,VIYSDGNRTFHGDSVK,GRAAGTFDS,3.37 3.03 3.47,3.29
GFTANSYGIS,VIYSDGRTTFYGDSVT,GRAAGTFDS,nd 3.79 3.55,3.67
GFTLNSYGIS,VIYSDGRRVFYGDSVH,GAAAGTFDS,2.54 2.10 2.65,2.43

The 2 strongest on average among those seen in every replicate, once more:

{"CDR-H1": "GDTLNSMGIS", "CDR-H2": "VIYSDGRRTFYVDSVK", "CDR-H3": "GRAAGTFDS", "log10 Kd (nM) by replicate": "1.83 1.83 1.88", "mean log10 Kd (nM)": "1.85"}
{"CDR-H1": "GFTLNSYGIS", "CDR-H2": "VIYSDGRRVFYGDSVH", "CDR-H3": "GAAAGTFDS", "log10 Kd (nM) by replicate": "2.54 2.10 2.65", "mean log10 Kd (nM)": "2.43"}